According to PubChem BioAssay AID1259398 (Fisher Drug Discovery Resource Center, 2018):
“And” between values parts separate entries of the source, which are not always exact repeats. Equal entries are not always repeated. The list shows a part of the results, in another mix than the full data. The source made the active and inactive calls. No stated cut-off is given here; in the data, active means inhibition above about 40%; inactive means the rest.

Amino acid sequences for entries named in this document (tags omitted).
UniProt Q8N884, whole entry, looked up: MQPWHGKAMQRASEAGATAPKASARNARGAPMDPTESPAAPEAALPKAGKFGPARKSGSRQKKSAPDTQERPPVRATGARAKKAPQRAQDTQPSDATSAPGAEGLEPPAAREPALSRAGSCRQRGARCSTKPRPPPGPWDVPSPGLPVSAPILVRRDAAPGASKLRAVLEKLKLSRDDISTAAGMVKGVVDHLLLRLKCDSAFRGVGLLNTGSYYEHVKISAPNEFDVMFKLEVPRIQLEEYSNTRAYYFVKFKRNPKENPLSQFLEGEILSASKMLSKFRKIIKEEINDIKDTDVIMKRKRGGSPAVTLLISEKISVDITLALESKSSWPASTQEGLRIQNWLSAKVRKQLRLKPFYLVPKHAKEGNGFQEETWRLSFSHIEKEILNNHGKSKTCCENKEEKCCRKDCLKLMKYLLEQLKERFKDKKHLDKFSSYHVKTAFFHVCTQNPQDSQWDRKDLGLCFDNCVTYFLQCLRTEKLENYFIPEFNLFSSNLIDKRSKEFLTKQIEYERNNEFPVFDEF

Molecular target: Cyclic GMP-AMP synthase (Homo sapiens) (UniProt Q8N884)
Test: Primary biochemical luminescence assay for human cyclic GMP-AMP synthase inhibitors (AID 1259398);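 further: 0% = vehicle reaction and 100% = reaction without DNA for no activity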
Settings: recombinant h-cGAS, ATP depletion, Kinase-Glo luminescence; at 12.5 µM; hits give high values

SMILES	inhibition
CCOP1(=S)c2c(C)nn(-c3ccccc3)c2N=C(c2ccccc2)N1C1CC1 (configuration not stated)	inactive: -4.43%
CCCCOP(=O)(OCCCC)N(CC)CC	inactive: -4.03%
Cc1ccc(NC(=O)COC(=O)C(C)(O)c2cccc(F)c2)c(C)c1 (configuration not stated)	inactive: -5.66%
COP(=O)(NS(=O)(=O)c1ccc(Cl)cc1)OC	inactive: -10.9% and inactive: -4.23%
O=C(OC1CN2CCC1CC2)C1COc2ccccc2O1 (configuration not stated)	inactive: -5.83%
CCCCOP1(=S)N=C2c3ccccc3CN2c2cc(N(C)C)ccc21 (configuration not stated)	inactive: -3.61%
O=P(Nc1nccs1)(c1ccc(Br)cc1)c1ccc(Br)cc1	inactive: -11.4%
CCOP1(=S)c2c(C)nn(-c3ccccc3)c2N=C(c2ccccc2F)N1C (configuration not stated)	inactive: -8.63%
O=P(O)(O)F	inactive: -1.66% and inactive: -3.74%
O=C(NC(Sc1ccncn1)C(Cl)(Cl)Cl)c1ccccc1 (configuration not stated)	inactive: -5.01%
Cc1c2non([O-])c-2c(C)[n+](=O)[n+]1[O-]	inactive: -4.48%
CCN(CC)C1=NP(=O)(c2ccccc2)NC(c2ccccc2)=C1C#N (configuration not stated)	inactive: 1.26%
CCOP(OCC)N1CCOCC1	inactive: -6.36%
O=P(C=C(Cl)c1ccccc1)(C=C(Cl)c1ccccc1)Nc1nncs1	inactive: -5.28%
O=C(O[C@H]1CN2CCC1CC2)C1NCc2ccccc2[C@@H]1c1ccccc1 (some centres not stated)	inactive: -2.85%
CC(C)(C)NC1=NCC(CI)S1 (configuration not stated)	inactive: 11.1%
COc1cc(Br)c([N+](=O)[O-])nc1[N+](=O)[O-]	inactive: -2.87%
CN(C(=O)Cc1ccc(Cl)c(Cl)c1)[C@H]1CCCC[C@@H]1N1CCCC1	inactive: 3.79% and inactive: 3.32%
COP1(=S)c2c(C)nn(-c3ccccc3)c2N=C(c2ccc(F)cc2)N1C (configuration not stated)	inactive: -9.76%
CC1CCC(C(C)C)C(OP(=O)(Nc2nccs2)c2ccccc2)C1 (configuration not stated)	inactive: -5.3%
CC[N+](CC)=C1SC2CS(=O)(=O)C(Br)C2(C)S1 (configuration not stated)	inactive: -1.05%
O=C(OC1CN2CCC1CC2)c1ccccc1 (configuration not stated)	inactive: -2.72%
CN(C(=O)Cc1ccc(Cl)c(Cl)c1)[C@@H]1CCCC[C@@H]1N1CCCC1	inactive: -8.95%
O=C(c1cccc([N+](=O)[O-])c1)c1ccc([N+](=O)[O-])c([N+](=O)[O-])c1	inactive: -4.77%

SMILES	inhibition
CN(C)c1ccc2c(c1)N1Cc3ccccc3C1=NP2(=O)c1ccccc1 (configuration not stated)	inactive: -3.32%
O=C(NC1CCS(=O)(=O)C1)NP(=S)(Oc1ccccc1)Oc1ccccc1 (configuration not stated)	inactive: 1.18%
Cc1c([N+](=O)[O-])c([N+](=O)[O-])nn1CC(=O)Nc1ccc([N+](=O)[O-])cc1Cl	inactive: -2.06%
O=P1(Nc2nncs2)C=C(c2ccccc2)SC(c2ccccc2)=C1	inactive: 2.07%
BrCC1CN=C(N2CCOCC2)S1 (configuration not stated)	inactive: 1.62%
CCC(C)C(=O)N1CCCC(C(=O)OC2CN3CCC2CC3)C1 (configuration not stated)	inactive: -9.3%
O=P(Nc1nccs1)(c1ccccc1)c1ccccc1	inactive: -5.57%
O=P1(Nc2nc(-c3ccc(F)cc3)cs2)C=C(c2ccccc2)OC(c2ccccc2)=C1	inactive: -5.11%
CCOC(=O)NC(Sc1nc2ccccc2o1)C(Cl)(Cl)Cl (configuration not stated)	inactive: -4.37%
O=P(Nc1ccccn1)(c1ccc(Br)cc1)c1ccc(Br)cc1	inactive: -4.54%
O=[N+]([O-])c1ccc(-c2csc(NP3(=O)C=C(c4ccccc4)OC(c4ccccc4)=C3)n2)cc1	inactive: -3.04%
O=C1c2no[n+]([O-])c2C(=O)c2no[n+]([O-])c21	inactive: 1.06%
CCSP(=O)(c1ccccc1)c1ccccc1	inactive: -5.68%
CN1CC(=O)NC1=NP(=O)(OCc1ccccc1)OCc1ccccc1	inactive: -3.21%
BrC1CSc2nc3ccccc3n2C1c1ccccc1 (configuration not stated)	inactive: -9.7%
CC1CCC(C(C)C)C(OP(=O)(Nc2ccccn2)c2ccccc2)C1 (configuration not stated)	inactive: -5.89% and inactive: -7.77%
Cc1n[n+]2c([nH]c1=O)SCC(Br)C2c1ccccc1 (configuration not stated)	inactive: 6.7%
ClCCNC1C2CC3CC(C2)CC1C3 (configuration not stated)	inactive: -5.22%
CCOP(=O)(NC(=NC(C)c1ccccc1)NC(C)c1ccccc1)OCC (configuration not stated)	inactive: -2.27%
CN(CCCl)Cc1cc(Cl)c(NC2=NCCN2)c(Cl)c1	inactive: -3.86%
Cc1ccc(NP(=O)(OCC(F)(F)F)OCC(F)(F)F)nc1	inactive: -1.78%
CN1C(=O)C2C(N=C(N3CCOCC3)N2CCc2ccccc2)N(C)C1=O (configuration not stated)	inactive: 6.23%
COc1cc(-n2cnnn2)ccc1-n1cnnn1	inactive: -10.6%
CN(CCCl)Cc1cc2cc(I)ccc2s1	inactive: 4.85%

SMILES	inhibition
CN(C(=O)Cc1ccc(Cl)c(Cl)c1)[C@@H]1CC[C@]2(CCCO2)C[C@H]1N1CCCC1	inactive: 10.1%
Cc1ccnc(NP2(=O)C=C(c3ccccc3)OC(c3ccccc3)=C2)c1	inactive: 2.22%
CN(C(=O)Cc1ccccc1)[C@@H]1CC[C@]2(CCCO2)C[C@H]1N1CCCC1	inactive: 0.592%
CCOP1(=S)c2c(C)nn(-c3ccccc3)c2N=C(c2ccc(F)cc2)N1C (configuration not stated)	inactive: -5.16%
NC(=O)Nc1ccc([As](=O)(O)O)cc1	inactive: -2.96%
CC(C)N(C(=O)C12CC3CC(C1)CC(P(=O)(Cl)Cl)(C3)C2)C(C)C	inactive: 0.382%
CN1c2ccccc2N2CC(C)(CI)SC12 (configuration not stated)	inactive: -3.83%
O=P(Nc1nccs1)(c1ccccc1)c1nc2ccccc2s1 (configuration not stated)	inactive: -5.98%
CCOP1(=S)c2c(C)nn(CCC#N)c2N=C(c2ccccc2F)N1C (configuration not stated)	inactive: 1.72%
COc1cccc(OP(=NC(=S)N2CCOCC2)(C(C)(C)C)C(C)(C)C)c1	inactive: -5.17%
COP1(=S)N=C2c3ccccc3CN2c2cc(N(C)C)ccc21 (configuration not stated)	inactive: -3.1%
CC(C)NC(=O)NP(=O)(Oc1ccccc1)Oc1ccccc1	inactive: -7.05%
O=C(OC1CN2CCC1CC2)c1cccc2[nH]cnc12 (configuration not stated)	inactive: -2.29%
Nc1nonc1OCCOc1nonc1N	inactive: 6.84%
O=P1(Nc2nc(-c3ccccc3)cs2)C=C(c2ccccc2)OC(c2ccccc2)=C1	inactive: 0.374%
N#CCOC(=O)C(O)(c1ccccc1)c1ccccc1	inactive: 3.71%
O=P(N=c1nc(-c2ccccc2)n(-c2ccccc2)s1)(N1CCOCC1)N1CCOCC1	inactive: -8.57%
CN(C)C1=C(c2c([N+](=O)[O-])cc([N+](=O)[O-])cc2[N+](=O)[O-])CCCC1	inactive: -23.1%
CCCOP(=O)(OCCC)O/C(C)=C/SC#N	inactive: -3.56%
O=C1OC2C3CC(CC13)C2SC(CCl)C(F)(F)F (configuration not stated)	inactive: -1.96%
COc1ccc2nc(NP(=O)(c3ccccc3)c3ccccc3)sc2c1	inactive: -3.58%
COP1(=S)c2c(C)nn(-c3ccccc3)c2N=C(c2ccccc2)N1C1CC1 (configuration not stated)	inactive: -4.65%
N#Cc1ccc(-c2csc(NP3(=O)C=C(c4ccccc4)OC(c4ccccc4)=C3)n2)cc1	inactive: -4.8%
O=C(CBr)c1ccc([N+](=O)[O-])cc1	inactive: -1.03%
